Assay results published in patent US6878713B2 (dated 2005).

Key:
[1] = test system: Fluoroquinolone Sensitive Strains; test: In-vitro antimicrobial test (MIC, two-fold serial agar dilution, NCCLS), Table 17; type: cell-based; settings: for MIC: Pseudomonas aeruginosa, read-out: MICs, P. aeruginosa 27853
[2] = oral, swiss mice, solution form
[3] = in vivo; settings: Swiss, mouse, po

COc1c(N2CCC(N)C(C)(C)C2)c(F)cc2c(=O)c(C(=O)O)cn(C3CC3)c12.Cl (single isomer, unassigned; (+)) [Compound 22, (+)-1-Cyclopropyl-6-fluoro-1,4-dihydro-8-methoxy-7-(4-amino-3,3-dimethyl-1-piperidinyl)-4-oxo-quinoline-3-carboxylic acid hydrochloride]
MIC [1]: 6.25 µg/mL

(±)-1-Cyclopropyl-6-fluoro-1,4-dihydro-8-methoxy-7-(4-amino-3,3-dimethyl-1-piperidinyl)-4-oxo-quinoline-3-carboxylic acid gluconate [Compound 20]
median lethal dose (LD50) [2]: 650 mg/kg

COc1c(N2CCC(N)C(C)(C)C2)c(F)cc2c(=O)c(C(=O)O)cn(C3CC3)c12.Cl (racemic) [Compound 18, (±)-1-Cyclopropyl-6-fluoro-1,4-dihydro-8-methoxy-7-(4-amino-3,3-dimethyl-1-piperidinyl)-4-oxo-quinoline-3-carboxylic acid hydrochloride]
MIC [1]: 6.25 µg/mL
LD50 [3]: 650 mg/kg

COc1c(N2CCC(N)C(C)(C)C2)c(F)cc2c(=O)c(C(=O)O)cn(C3CC3)c12.Cl (single isomer, unassigned; (-)) [Compound 26, (−)-1-Cyclopropyl-6-fluoro-1,4-dihydro-8-methoxy-7-(4-amino-3,3-dimethyl-1-piperidinyl)-4-oxo-quinoline-3-carboxylic acid hydrochloride]
MICs ([1]; P. aeruginosa 27853): 6.25 µg/mL
